Measurements reported in ChEMBL document CHEMBL6121018, “Targeting JNK3 for Alzheimer's disease: Design and synthesis of novel inhibitors with aryl group diversity utilizing wide pocket” (Eur J Med Chem, 2025).

By UniProt entry, the sequences of proteins in these tests, tags left out. Where a name states a change or a piece, a line headed by the entry shows the natural chain unless it says otherwise.
UniProt P45983: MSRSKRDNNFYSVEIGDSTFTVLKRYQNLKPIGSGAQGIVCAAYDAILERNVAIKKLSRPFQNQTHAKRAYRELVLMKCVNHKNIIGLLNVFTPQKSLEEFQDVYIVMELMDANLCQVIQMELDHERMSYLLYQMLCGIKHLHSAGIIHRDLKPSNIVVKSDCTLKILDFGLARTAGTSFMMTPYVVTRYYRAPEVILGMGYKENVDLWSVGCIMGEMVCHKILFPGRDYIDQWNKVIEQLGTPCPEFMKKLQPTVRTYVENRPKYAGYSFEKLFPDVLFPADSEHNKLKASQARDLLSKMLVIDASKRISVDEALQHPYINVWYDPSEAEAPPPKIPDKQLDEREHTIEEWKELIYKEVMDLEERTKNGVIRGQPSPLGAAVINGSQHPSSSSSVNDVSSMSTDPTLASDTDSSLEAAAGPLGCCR
UniProt P49840: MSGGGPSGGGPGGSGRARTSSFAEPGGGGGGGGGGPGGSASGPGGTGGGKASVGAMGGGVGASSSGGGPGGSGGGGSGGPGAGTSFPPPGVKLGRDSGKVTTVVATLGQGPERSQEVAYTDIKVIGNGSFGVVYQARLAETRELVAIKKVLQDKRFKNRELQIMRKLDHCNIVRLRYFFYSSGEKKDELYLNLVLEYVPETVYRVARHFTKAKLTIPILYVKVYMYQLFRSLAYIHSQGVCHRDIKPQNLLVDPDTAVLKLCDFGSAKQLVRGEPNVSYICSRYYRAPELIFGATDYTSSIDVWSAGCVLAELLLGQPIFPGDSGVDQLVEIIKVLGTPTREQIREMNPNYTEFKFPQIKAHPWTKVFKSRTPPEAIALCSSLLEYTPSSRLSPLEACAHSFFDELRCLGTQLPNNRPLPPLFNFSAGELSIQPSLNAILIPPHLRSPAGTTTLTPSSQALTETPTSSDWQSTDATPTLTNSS
UniProt Q16539, whole entry: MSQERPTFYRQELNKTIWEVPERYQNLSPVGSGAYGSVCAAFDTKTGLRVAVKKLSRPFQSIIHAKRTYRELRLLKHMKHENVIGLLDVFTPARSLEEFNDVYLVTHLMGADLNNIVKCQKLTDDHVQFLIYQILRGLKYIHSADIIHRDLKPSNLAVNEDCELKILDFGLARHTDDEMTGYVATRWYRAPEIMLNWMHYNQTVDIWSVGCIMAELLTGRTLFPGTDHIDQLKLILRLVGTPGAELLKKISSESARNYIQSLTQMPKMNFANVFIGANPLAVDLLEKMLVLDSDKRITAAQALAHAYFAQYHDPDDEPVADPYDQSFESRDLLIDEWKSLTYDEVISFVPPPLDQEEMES
UniProt P49841: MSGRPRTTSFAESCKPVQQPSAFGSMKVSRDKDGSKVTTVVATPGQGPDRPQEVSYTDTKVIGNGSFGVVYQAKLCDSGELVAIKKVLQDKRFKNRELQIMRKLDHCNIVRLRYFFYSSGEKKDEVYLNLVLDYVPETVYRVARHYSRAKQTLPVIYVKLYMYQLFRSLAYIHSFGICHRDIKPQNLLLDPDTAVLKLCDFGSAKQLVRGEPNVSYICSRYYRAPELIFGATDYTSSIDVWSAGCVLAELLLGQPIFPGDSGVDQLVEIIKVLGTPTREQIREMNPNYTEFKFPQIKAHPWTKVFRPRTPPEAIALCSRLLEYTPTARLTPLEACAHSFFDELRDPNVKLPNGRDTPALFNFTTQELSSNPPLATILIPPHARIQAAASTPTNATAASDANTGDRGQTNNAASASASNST

Key:
Conditions in all cases: dose 100.0 nM, time 2.0 hrs
[1] = target: Mitogen-activated protein kinase 8 (Homo sapiens, UniProt P45983)
[2] = target: Glycogen synthase kinase-3 alpha (Homo sapiens, UniProt P49840)
[3] = target: Mitogen-activated protein kinase 14 (Homo sapiens, UniProt Q16539)
[4] = target: Glycogen synthase kinase-3 beta (Homo sapiens, UniProt P49841)
[5] = target: Mitogen-activated protein kinase 9 (Homo sapiens, UniProt P45984)

`NC(=O)c1nn(-c2ccnc(N[C@H]3CCCN(C(=O)C4CC4)C3)n2)cc1/C=C/c1ccccc1` gave an inhibition [1] of 50%, an inhibition [2] of 70.5% and an inhibition [3] of 0.7%. For the same compound, the inhibition [4] was 91.5% and the inhibition [5] was 30%.
